Assay results taken from patent US7777042B2, “N-sulfonylpipecolic acid derivative FKBP binding composition and pharmaceutical use thereof” (Aventis Pharmaceuticals Inc., priority 2004, dated 2010).

test system: FKBP-mediated cellular function in Jurkat cells; assay: Jurkat IFNγ-Luc reporter: Jurkat Shift (prevention of the action of FK506); conditions: ratio of EC50 of FK506 in the presence of 10M test compound to EC50 in its absence

SMILES	Jurkat Shift
C=CCOc1ccc(C[C@H](NC(=O)[C@@H]2CCCCN2S(=O)(=O)c2ccccc2)C(=O)NC2CCCCC2)cc1 [drawing 65]	13.4
CNC(=O)[C@H](Cc1ccc(OC(C)C)cc1)NC(=O)[C@@H]1CCCCN1S(=O)(=O)c1cccc(C(F)(F)F)c1	3.4
Cc1ccc(C[C@H](NC(=O)[C@@H]2CCCCN2S(=O)(=O)c2ccccc2)C(=O)NC2CCCCC2)cc1 [drawing 66]	10.4
COc1ccc(C[C@H](NC(=O)[C@@H]2CCCCN2S(=O)(=O)c2cccc(C(F)(F)F)c2)C(=O)NC2CCOCC2)cc1 [drawing 75]	14.4
Cc1ccc(C[C@H](NC(=O)[C@@H]2CCCCN2S(=O)(=O)c2cccc(C(F)(F)F)c2)C(=O)NCC2CCCCC2)cc1	2.8
CC1(C)CC(NC(=O)[C@H](Cc2ccc(OCCCF)cc2)NC(=O)[C@@H]2CCCCN2S(=O)(=O)c2cccc(F)c2)CC(C)(C)N1 [drawing 78]	34.6
Cc1ccc(C[C@H](NC(=O)[C@@H]2CCCCN2S(=O)(=O)c2cccc(C(F)(F)F)c2)C(=O)NCCCCN)cc1 [drawing 64]	4.5
COc1ccc(C[C@H](NC(=O)[C@@H]2CCCCN2S(=O)(=O)c2cccc(C(F)(F)F)c2)C(=O)NC2CCOCC2)cc1OC [drawing 79]	31.4
COc1ccc(C[C@H](NC(=O)[C@@H]2CCCCN2S(=O)(=O)c2ccccc2)C(=O)NCCC(C)(C)C)cc1 [drawing 77]	6.5
